Source: US12290596B2

Test system: remifentanil-induced suppression of CO2-induced increases in minute ventilation

In the case of C=C1CC[C@@]2(O)[C@H]3Cc4ccc(O)c5c4[C@@]2(CCN3CC2CC2)[C@H]1O5, the “LS Mean VE Change” value (5 minutes post dose, sensitivity analysis excluding outliers, n 48) is reported as 5.052 L/min and the “LS mean change in minute ventilation” value (Part 2, 5 minutes, sensitivity analysis) is reported as 5.052 L/min.
